Data taken from patent US9115061B2, “Naphthalene-based inhibitors of anti-apoptotic proteins” (BURNHAM INSTITUTE FOR MEDICAL RESEARCH, priority 2007, dated 2015).

Assays:
[1] = system: HeLa cells; test: HeLa cells viability assay; type: cell-based, human; details: read-out: IC50 (HeLa); Table 5
Method: Relative numbers of viable cells was determined by XTT assay. Briefly, in a 96-well plate, we added 50 μl of a mixture of 1 mg/ml of XTT (2,3-bis(2-methoxy-4-nitro-5-sulfophenyl)-5-[(phenylamino)carbonyl]-2H-tetrazolium hydroxide) (Polysciences, Washington, Pa.) containing 0.025 mM PMS (phenazine methosulfate) to each well. The 96-well plates were reincubated for an additional 4 hours to allow for XTT formazan production. Then, the contents of each plate were mixed and optical densities were determined at a wavelength of 450 nm (OD450). Net OD450 was determined after subtracting OD450 of blank wells. […] Immunoblot analysis of BCL-XL was accomplished as previously described.

[2] = system: ZR75-1 cells; test: XTT dye reduction assay; type: cell-based, human; details: read-out: IC50, cell viability ZR75-1, three days
Method: The effects of the compounds on viability of tumor cells in culture were monitored by using XTT assays with MCF7 and ZR75-1 cell lines. MCF7 cells were grown in DMEM containing 10% fetal bovine serum, penicillin/streptomycin, supplemented with 10^−10 M insulin, 1 mM sodium pyruvate and glutamine. ZR75-1 cells were grown in RPMI containing 10% fetal bovine serum, penicillin/streptomycin, supplemented with HEPES buffer, 1 mM sodium pyruvate and glutamine. Cells were regularly tested for mycoplasma contamination. Cells were seeded triplicates at an initial cell density of 1,000 cells per well. Blank wells received no cells.
Gossypol, purpurogallin and 5D1 were added at final concentrations of 0, 1, 10 and 100 μM and incubated for three days. Relative numbers of viable cells was determined by XTT assay. Briefly, in a 96-well plate, we added 50 μl of a mixture of 1 mg/ml of XTT (2,3-bis(2-methoxy-4-nitro-5-sulfophenyl)-5-[(phenylamino)carbonyl]-2H-tetrazolium hydroxide) (Polysciences, Washington, Pa.) containing 0.025 mM PMS (phenazine methosulfate) to each well. The 96-well plates were reincubated for an additional 4 hours to allow for XTT formazan production. Then, the contents of each plate were mixed and optical densities were determined at a wavelength of 450 nm (OD450). Net OD450 was determined after subtracting OD450 of blank wells. […]

Row | IC50 [1] | SMILES | IC50 [2]
1 | 30 µM | COC(=O)c1cc(O)c(=O)c2cc(O)c(O)cc2c1 | –
2 | – | CCOC(=O)c1cc(O)c(=O)c2cc(O)c(O)cc2c1 | 50 µM
